{"sequences": {"note": "The chains behind the UniProt entries cited, without tags or fusion partners. Where a name states a change or a piece, a line headed by the entry shows the natural chain unless it says otherwise.", "UniProt P01116": "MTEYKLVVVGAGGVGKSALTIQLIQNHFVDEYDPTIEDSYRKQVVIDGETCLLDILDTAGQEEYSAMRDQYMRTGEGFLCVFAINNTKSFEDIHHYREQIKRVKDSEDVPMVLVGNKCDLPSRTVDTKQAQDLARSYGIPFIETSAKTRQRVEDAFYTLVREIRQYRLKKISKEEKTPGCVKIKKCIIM"}, "source": "patent US20250368649A1", "about": "“TETRAHYDROPYRIDOPYRIMIDINE PAN-KRAS INHIBITORS” (Mirati Therapeutics, Inc., priority 2022, published 2025)", "key": {"H358 cells": {"tested_on": "H358 cells", "assay": "Inhibition of KRas-mediated phosphorylation of ERK (Cisbio HTRF pERK), H358 cells", "type": "cell-based", "settings": "single point at 100 nM, 3 hrs compound incubation"}, "KRas G12D": {"biological_target": "KRas G12D (Homo sapiens, UniProt P01116, G12D)", "assay": "KRas binding assay (TR-FRET displacement), KRas G12D", "settings": "read-out: Binding to KRas (IC50 nM) G12D"}, "A549 cells": {"tested_on": "A549 cells", "assay": "Inhibition of KRas-mediated phosphorylation of ERK (Cisbio HTRF pERK), A549 cells", "type": "cell-based", "settings": "single point at 100 nM, 3 hrs compound incubation"}, "KRas G12V": {"biological_target": "KRas G12V (Homo sapiens, UniProt P01116, G12V)", "assay": "KRas binding assay (TR-FRET displacement), KRas G12V", "settings": "read-out: Binding to KRas (IC50 nM) G12V"}, "HCT116 cells": {"tested_on": "HCT116 cells", "assay": "Inhibition of KRas-mediated phosphorylation of ERK (Cisbio HTRF pERK), HCT116 cells", "type": "cell-based", "settings": "single point at 100 nM, 3 hrs compound incubation"}, "H727 cells": {"tested_on": "H727 cells", "assay": "Inhibition of KRas-mediated phosphorylation of ERK (Cisbio HTRF pERK), H727 cells", "type": "cell-based"}, "KRas G12R": {"biological_target": "KRas G12R (Homo sapiens, UniProt P01116, G12R)", "assay": "KRas binding assay (TR-FRET displacement), KRas G12R", "settings": "read-out: Binding to KRas (IC50 nM) G12R"}, "H460 cells": {"tested_on": "H460 cells", "assay": "Inhibition of KRas-mediated phosphorylation of ERK (Cisbio HTRF pERK), H460 cells", "type": "cell-based", "settings": "single point at 100 nM, 3 hrs compound incubation"}, "ASPC1 cells": {"tested_on": "ASPC1 cells", "assay": "Inhibition of KRas-mediated phosphorylation of ERK (Cisbio HTRF pERK), ASPC1 cells", "type": "cell-based", "settings": "AsPC-1 cells"}, "[1]": {"settings": "single point at 100 nM, 3 hrs compound incubation"}}}
{"smiles": "CCc1c(F)ccc2cc(O)cc(N3CCc4c(nc(OC[C@@]56CCCN5C[C@H](F)C6)nc4N4CCCn5nc(NP(C)(C)=O)cc5C4)C3)c12", "values": [{"measurement": "Inhibition (HTRF % at 100 nM) of KRas-mediated Phosphorylation of ERK, H358", "setting": "H358 cells", "value": 7, "unit": "%"}, {"measurement": "IC50", "setting": "KRas G12D", "value": "< 2", "unit": "nM"}, {"measurement": "Inhibition (HTRF % at 100 nM) of KRas-mediated Phosphorylation of ERK, A549", "setting": "A549 cells", "value": "−12", "unit": "%"}, {"measurement": "IC50", "setting": "KRas G12V", "value": 2, "unit": "nM"}, {"measurement": "Inhibition (HTRF % at 100 nM) of KRas-mediated Phosphorylation of ERK, HCT116", "setting": "HCT116 cells", "value": 2, "unit": "%"}, {"measurement": "IC50", "setting": "H727 cells; read-out: Inhibition (HTRF IC50 nM) of KRas-mediated Phosphorylation of ERK, H727, 3 hr compound incubation, Cisbio pERK HTRF", "value": 3050, "unit": "nM"}, {"measurement": "Inhibition (HTRF % at 100 nM) of KRas-mediated Phosphorylation of ERK, H727", "setting": "H727 cells; [1]", "value": "−12", "unit": "%"}, {"measurement": "IC50", "setting": "KRas G12R", "value": 3, "unit": "nM"}, {"measurement": "Inhibition (HTRF % at 100 nM) of KRas-mediated Phosphorylation of ERK, H460", "setting": "H460 cells", "value": 7, "unit": "%"}, {"measurement": "IC50", "setting": "ASPC1 cells; read-out: Inhibition (HTRF IC50 nM) of KRas-mediated Phosphorylation of ERK, AsPC-1, 3 hr compound incubation, Cisbio pERK HTRF", "value": 1310, "unit": "nM"}, {"measurement": "Inhibition (HTRF % at 100 nM) of KRas-mediated Phosphorylation of ERK, AsPC-1", "setting": "ASPC1 cells; [1]", "value": 5, "unit": "%"}]}
